From PubChem BioAssay AID641 (Vanderbilt High Throughput Screening Facility, 2007) come the findings set out here.

By UniProt entry, the sequences of proteins in these tests, tags left out.
UniProt P21728, whole entry: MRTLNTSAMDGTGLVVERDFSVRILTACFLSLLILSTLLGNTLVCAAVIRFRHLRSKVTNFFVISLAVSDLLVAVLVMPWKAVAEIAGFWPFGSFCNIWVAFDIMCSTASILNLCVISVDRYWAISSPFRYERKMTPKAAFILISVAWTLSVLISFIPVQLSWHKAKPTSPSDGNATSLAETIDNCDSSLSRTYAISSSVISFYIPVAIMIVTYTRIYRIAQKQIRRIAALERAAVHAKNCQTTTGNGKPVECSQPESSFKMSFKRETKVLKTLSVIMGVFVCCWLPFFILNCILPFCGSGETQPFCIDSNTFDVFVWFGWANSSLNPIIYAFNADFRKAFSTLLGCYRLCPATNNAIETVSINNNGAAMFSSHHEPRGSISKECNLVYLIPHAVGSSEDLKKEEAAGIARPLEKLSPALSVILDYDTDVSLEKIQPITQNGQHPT

The list shows a part of the results, in another mix than the full data. Some results for these compounds are left out of this collection, so the calls shown say nothing about other tests. Active and inactive are the calls of the source.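 The calls were made as follows: active = luminescence count or its row- and column-corrected plate score outside the 99.7% band of the plate's sample wells, on either side; inactive = the rest.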

The assay addresses D(1A) dopamine receptor (Homo sapiens) (UniProt P21728). The assay can be described thus: D1 CRE-luciferase signal change, two-sided – cell-based, HEK293 D1, dopamine EC30, D1 allosteric modulator project, primary screen (AID 641). The following applies: dopamine EC30 potentiation, at 10 µM, actives deviate in either direction.
For the compound `O=C(OC1CN2CCC1CC2)C(CO)(c1ccccc1)c1ccccc1` (configuration not stated), the B-score is inactive: -0.0774.

For the compound `CN(C)c1cccc(C(=O)NCC2(N(C)C)CCCCC2)c1`, the B-score is inactive: -0.281.
